Results on four compounds are retold here after PMC8040948 (Journal of medicinal chemistry, 2020).

By UniProt entry, the sequences of proteins in these tests, tags left out.
UniProt P08684, whole entry: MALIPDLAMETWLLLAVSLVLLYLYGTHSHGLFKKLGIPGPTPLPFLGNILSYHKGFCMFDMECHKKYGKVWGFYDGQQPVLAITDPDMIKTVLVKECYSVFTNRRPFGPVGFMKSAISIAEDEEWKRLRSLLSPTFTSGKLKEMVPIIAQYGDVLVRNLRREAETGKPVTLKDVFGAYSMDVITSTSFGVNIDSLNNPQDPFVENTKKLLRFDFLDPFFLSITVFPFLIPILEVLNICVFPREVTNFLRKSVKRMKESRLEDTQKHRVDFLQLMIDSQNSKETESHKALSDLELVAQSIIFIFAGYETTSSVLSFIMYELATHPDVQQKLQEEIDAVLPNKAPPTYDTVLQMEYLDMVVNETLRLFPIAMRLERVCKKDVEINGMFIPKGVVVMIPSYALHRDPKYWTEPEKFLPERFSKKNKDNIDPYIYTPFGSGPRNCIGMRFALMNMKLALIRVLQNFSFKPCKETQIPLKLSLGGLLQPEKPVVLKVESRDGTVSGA
UniProt P05177, whole entry: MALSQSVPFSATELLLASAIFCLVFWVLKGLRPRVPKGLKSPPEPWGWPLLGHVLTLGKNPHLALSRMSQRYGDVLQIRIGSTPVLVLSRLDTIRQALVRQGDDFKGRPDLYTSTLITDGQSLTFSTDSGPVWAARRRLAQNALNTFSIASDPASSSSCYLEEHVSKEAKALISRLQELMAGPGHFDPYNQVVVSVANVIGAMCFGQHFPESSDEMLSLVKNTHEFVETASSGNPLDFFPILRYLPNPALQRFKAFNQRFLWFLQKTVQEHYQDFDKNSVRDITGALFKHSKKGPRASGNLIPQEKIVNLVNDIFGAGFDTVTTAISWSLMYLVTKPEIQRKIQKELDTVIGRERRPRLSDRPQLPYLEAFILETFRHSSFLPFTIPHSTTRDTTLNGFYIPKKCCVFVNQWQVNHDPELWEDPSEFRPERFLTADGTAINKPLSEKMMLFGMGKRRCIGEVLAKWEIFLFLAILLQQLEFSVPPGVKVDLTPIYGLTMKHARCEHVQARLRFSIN

In general, IC50 refers to the point on the concentration scale where inhibition reaches its midpoint. Low readings indicate inhibition by little substance, high ones a need for much substance.

One experiment relates to other P2YRs. The conditions noted are these: ref [8],[17]; cited from earlier work.
Another experiment has as its target CYP3A4 (Homo sapiens, UniProt P08684). Nature of the experiment: CYP3A4 inhibition.
The target in a further experiment is CYP1A2 (Homo sapiens, UniProt P05177). Nature of the experiment: CYP1A2 inhibition.
Another experiment concerns the target T1, hP2Y14R (Homo sapiens, UniProt Q15391).
T1 sequence (Q15391 1-338): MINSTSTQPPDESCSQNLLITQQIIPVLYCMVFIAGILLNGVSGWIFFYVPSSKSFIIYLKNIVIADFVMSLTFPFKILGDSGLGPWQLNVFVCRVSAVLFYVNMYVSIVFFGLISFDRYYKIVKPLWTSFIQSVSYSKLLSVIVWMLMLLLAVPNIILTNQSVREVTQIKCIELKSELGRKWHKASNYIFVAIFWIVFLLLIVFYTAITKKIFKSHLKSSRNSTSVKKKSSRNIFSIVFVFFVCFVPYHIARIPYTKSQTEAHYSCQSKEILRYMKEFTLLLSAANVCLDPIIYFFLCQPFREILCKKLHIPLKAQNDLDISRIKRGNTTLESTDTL
The format is binding. The settings on record: IC50 at hP2Y14R.

As for `O=C(O)c1cc(-c2ccc(C3CCNCC3)cc2)c2ccc(-c3ccc(C(F)(F)F)cc3)cc2c1` [Compound 1, 4-[4-(4-piperidinyl)-phenyl]-7-[4-(trifluoromethyl)phenyl]-2-naphthalenecarboxylic acid, reference compound], the “activity at other P2YRs” value in the experiment on other P2YRs was “inactive”.

As to `O=C(O)c1cc(-c2ccc(C34CCN(CC3)CC4)cc2)c2ccc(-c3ccc(C(F)(F)F)cc3)cc2c1` [Compound 17, 4-(4-(Quinuclidin-4-yl)phenyl)-7-(4-(trifluoromethyl)phenyl)-2-naphthoic Acid], the IC50 was found to be 3.29 µM against CYP3A4 and 8.69 µM against CYP1A2.

Take `Cc1c(C(=O)O)cc(-c2cn(-c3ccc(C(F)(F)F)cc3)nn2)cc1-c1ccc(C2CCNCC2)cc1` [Compound 34, 2-Methyl-4′-(piperidin-4-yl)-5-(1-(4-(trifluoromethyl)phenyl)-1H-1,2,3-triazol-4-yl)-[1,1′-biphenyl]-3-carboxylic Acid]: at hP2Y14R, the IC50 was > 10 µM.

As for `NC(=O)c1ccc(-c2cc(C(=O)O)cc(-c3nc4cc(C(F)(F)F)ccc4[nH]3)c2)cc1` [Compound 32, 4′-Carbamoyl-5-(5-(trifluoromethyl)-1H-benzo[d]imidazol-2-yl)-[1,1′-biphenyl]-3-carboxylic Acid], the IC50 against hP2Y14R was > 10 µM.
